Assay results: paper PMC6405930, “Conservation of the Amyloid Interactome Across Diverse Fibrillar Structures” (Scientific Reports, 2019)

Amino acid sequences for entries named in this document (tags omitted). Residues count along the entry.
UniProt P01275, 53-81 limits assumed: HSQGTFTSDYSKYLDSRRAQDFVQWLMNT
UniProt P01009, 383-418 limits assumed: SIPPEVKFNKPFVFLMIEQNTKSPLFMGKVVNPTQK

What was measured:
[1] = target: T1, αSN fibrils (Homo sapiens, UniProt P37840); assay: Fibril incubation with CSF, quantitative MS/MS of bound proteins; format: binding; details: 4:1 w/w CSF protein:fibril
Method: (§1) Plasma and CSF solutions were centrifuged (40,000 g, 20 min) to remove any aggregates. The protein concentration was determined using 280 nm absorbance assuming 1 Abs = 1 mg/mL. […] Control samples (without fibril material) were prepared similarly. All samples were incubated at room temperature for one hour under gentle agitation. Fibrils and fibril-bound proteins were pelleted by centrifugation at 17,000 g for 30 minutes. The supernatant (175 μL) was removed and the aggregate was re-suspended in 175 μL PBS and pelleted again before further preparation for gel analysis and spin-filter assisted digest for quantitative MS/MS. […]
(§2) The micro-purified tryptic peptides were dissolved in 0.1% formic acid, injected and trapped on an in-house packed trap column (2 cm × 100 μm I.D) with RP ReproSil-Pur C18-AQ 3 μm resin (Dr. Maisch GmbH). […] Elution from the analytical column was performed with a linear gradient from 5% to 35% phase B (90% acetonitrile with 0.1% formic acid) over 20 min for protein identification and 50 min for quantitative analysis, respectively.
(§3) All samples were analysed three times, yielding nine MS/MS experiments for each fibril for both plasma and CSF. […]
(§4) XIC quantification was based on the average ion intensity of the three most abundant peptides for each protein. Only proteins quantified in at least four out of nine MS/MS experiments per fibril were included in the quantification. […]

[2] = test system: T2, Ab1 fibrils; assay: Fibril incubation with plasma, quantitative MS/MS of bound proteins; format: binding, human; details: 50:1 w/w plasma protein:fibril
T2 construct: Synthetic amyloid β peptide 1–40 was purchased from Caslo Aps (Lyngby, Denmark); purchased Caslo Aps (Lyngby, Denmark); host or cells: synthetic peptide
Method: (§5) Plasma and CSF solutions were centrifuged (40,000 g, 20 min) to remove any aggregates. The protein concentration was determined using 280 nm absorbance assuming 1 Abs = 1 mg/mL. […] Control samples (without fibril material) were prepared similarly. All samples were incubated at room temperature for one hour under gentle agitation. Fibrils and fibril-bound proteins were pelleted by centrifugation at 17,000 g for 30 minutes. The supernatant (175 μL) was removed and the aggregate was re-suspended in 175 μL PBS and pelleted again before further preparation for gel analysis and spin-filter assisted digest for quantitative MS/MS. […]
as §2, §3

[3] = test system: T3, Ab2 fibrils; assay: as above; format: binding, human; details: 50:1 w/w plasma protein:fibril
T3 construct: Two structurally distinct fibrils of the Aβ(1–40) peptide associated with AD
Method: as §1, §2, §3, §4

[4] = target: T4, glucagon fibrils (Homo sapiens, UniProt P01275); assay: as above; format: binding; details: 50:1 w/w plasma protein:fibril
T4 construct: fibrils of the peptide hormone glucagon
Method: as §1, §2, §3, §4

[5] = target: T5, C-36 fibrils (Homo sapiens, UniProt P01009); assay: as above; format: binding; details: 50:1 w/w plasma protein:fibril
T5 construct: the 36 residue C-terminal fragment of α1-antitrypsin (C-36)
Method: as §1, §2, §3, §4

[6] = target: T1, αSN fibrils; assay: as above; format: binding; details: 50:1 w/w plasma protein:fibril
Method: as §1, §2, §3, §4

[7] = test system: T6, FAS4-AD aggregates; assay: as above; format: binding, human; parameters: key: *: Identified, but not quantified; —: Not identified in any of the samples; details: symbol cells
T6 construct: aggregates of a mutated version of the FAS1-4 domain of TGFBIp
Method: as §1, §2, §3, §4

[8] = test system: fibril systems (Ab1, Ab2, glucagon, αSN and C-36); assay: Fibril incubation with CSF, quantitative MS/MS, span over the fibril systems; format: binding, human
Method: as §5, §2, §3

Substance: Apolipoprotein E: plasma/CSF protein bound to fibrils
- Relative composition of CSF proteins bound: αSN [1]: 11.0 ± 3.0 % of total protein

Substance: Coagulation factor X: plasma protein bound to fibrils
- Relative composition of plasma proteins bound: Ab1 [2]: 0.4 ± 0.0 % of total protein
- Relative composition of plasma proteins bound: Ab2 [3]: 0.5 ± 0.1 % of total protein
- Relative composition of plasma proteins bound: Glucagon [4]: 0.6 ± 0.0 % of total protein
- Relative composition of plasma proteins bound: C-36 [5]: 0.2 ± 0.1 % of total protein
- Relative composition of plasma proteins bound: αSN [6]: 0.9 ± 0.5 % of total protein
- Identification status of plasma protein bound: FAS4-AD [7]: *

Substance: Serum albumin: plasma/CSF protein bound to fibrils
- contribution to the fibril interactomes [8]: 27.8–69.7%
